Details: PPC-enriched phosphatidylcholine/polyglycol carrier of Example 1

For recombinant human insulin, the “solubility in the carrier” value was “readily soluble”.

Reference: US20100311696A1, “TOPICAL SKIN TREATMENT COMPOSITION” (priority 2002, published 2010)
